Paper PMC7801405, “Structure, substrate specificity, and catalytic mechanism of human D-2-HGDH and insights into pathogenicity of disease-associated mutations” (Cell Discovery, 2021)

Biological target: T1, D-2-hydroxyglutarate dehydrogenase (D-2-HGDH) (Homo sapiens, UniProt Q8N465)
T1 construct: gene D2HGDH
T1 sequence (Q8N465 51-521): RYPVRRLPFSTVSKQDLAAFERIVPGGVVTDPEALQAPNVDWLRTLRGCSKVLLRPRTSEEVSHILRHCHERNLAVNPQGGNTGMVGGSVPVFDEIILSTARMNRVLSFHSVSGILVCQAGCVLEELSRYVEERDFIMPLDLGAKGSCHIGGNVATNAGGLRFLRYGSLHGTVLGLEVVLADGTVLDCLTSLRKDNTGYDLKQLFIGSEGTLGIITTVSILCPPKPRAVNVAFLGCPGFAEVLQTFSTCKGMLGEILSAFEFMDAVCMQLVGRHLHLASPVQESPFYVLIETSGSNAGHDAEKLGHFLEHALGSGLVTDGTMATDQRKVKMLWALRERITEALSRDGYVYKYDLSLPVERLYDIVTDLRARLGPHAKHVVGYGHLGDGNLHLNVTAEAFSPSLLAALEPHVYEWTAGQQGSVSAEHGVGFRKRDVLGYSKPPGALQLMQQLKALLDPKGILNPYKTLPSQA

Compound: Cc1cc2nc3c(=O)[nH]c(=O)nc-3n(C[C@H](O)[C@H](O)[C@H](O)COP(=O)(O)OP(=O)(O)OC[C@H]3O[C@@H](n4cnc5c(N)ncnc54)[C@H](O)[C@@H]3O)c2cc1C [FAD]
- crystal structure (2.20 Å), co-purified: In all the structures, there is a FAD non-covalently bound to the active site
